# Measurements reported in the supplement of paper PMC8728848.
# This is one part of a sample in which the strongest signals are shown more often than they occur.
# Tests used:
# Assay in all cases: glycan array binding signal (z-score within array); higher = stronger binding
# Conditions in all cases: glycan notation: IUPAC condensed, linker removed
# [1] = molecular target: Fuc(a1-2)Gal(b1-3)[Fuc(a1-4)]GlcNAc(b1-3)[Fuc(a1-3)[Gal(b1-4)]GlcNAc(b1-6)]Gal(b1-4)Glc
# [2] = molecular target: Fuc(a1-2)Gal(b1-4)GlcNAc(b1-2)Man(a1-3)[Fuc(a1-2)Gal(b1-4)GlcNAc(b1-2)Man(a1-6)]Man(b1-4)GlcNAc(b1-4)GlcNAc
# [3] = molecular target: Fuc(a1-2)Gal(b1-4)GlcNAc(b1-2)[Fuc(a1-2)Gal(b1-4)GlcNAc(b1-4)]Man(a1-3)[Fuc(a1-2)Gal(b1-4)GlcNAc(b1-2)Man(a1-6)]Man(b1-4)GlcNAc(b1-4)GlcNAc
# [4] = molecular target: Fuc(a1-2)Gal(b1-4)GlcNAc(b1-3)Gal(b1-4)GlcNAc
# [5] = molecular target: Fuc(a1-2)Gal(b1-4)GlcNAc(b1-3)Gal(b1-4)GlcNAc(b1-2)Man(a1-3)[Fuc(a1-2)Gal(b1-4)GlcNAc(b1-3)Gal(b1-4)GlcNAc(b1-2)Man(a1-6)]Man(b1-4)GlcNAc(b1-4)GlcNAc
# [6] = molecular target: Fuc(a1-2)Gal(b1-4)GlcNAc(b1-3)Gal(b1-4)GlcNAc(b1-3)Gal(b1-4)GlcNAc
# [7] = molecular target: Fuc(a1-2)Gal(b1-4)[Fuc(a1-3)]GlcNAc(b1-3)Gal(b1-4)[Fuc(a1-3)]GlcNAc
# [8] = molecular target: Fuc(a1-2)Gal6S(b1-3)GlcNAc
# [9] = molecular target: Fuc(a1-2)[GalNAc(a1-3)]Gal
# [10] = molecular target: Fuc(a1-2)[GalNAc(a1-3)]Gal(b1-3)GalNAc(a1-3)[Fuc(a1-2)]Gal(b1-4)GlcNAc
# [11] = molecular target: Fuc(a1-2)[GalNAc(a1-3)]Gal(b1-3)GalNAc(b1-3)Gal(a1-4)Gal(b1-4)Glc
# [12] = molecular target: Fuc(a1-2)[GalNAc(a1-3)]Gal(b1-3)GlcNAc
# [13] = molecular target: Fuc(a1-3)[Gal(b1-4)]GlcNAc(b1-3)Gal(b1-4)[Fuc(a1-3)]GlcNAc
# Gal(a1-3)Gal(b1-3)GlcNAc = molecular target: Gal(a1-3)Gal(b1-3)GlcNAc
# Gal(a1-3)Gal(b1-4)GlcNAc = molecular target: Gal(a1-3)Gal(b1-4)GlcNAc
# [14] = molecular target: Gal(a1-3)Gal(b1-4)[Fuc(a1-3)]GlcNAc(b1-2)Man(a1-3)[Gal(a1-3)Gal(b1-4)[Fuc(a1-3)]GlcNAc(b1-2)Man(a1-6)]Man(b1-4)GlcNAc(b1-4)GlcNAc
# [15] = molecular target: Gal(a1-4)Gal(b1-4)GlcNAc(b1-3)Gal(b1-4)Glc
# Gal(b1-3)Gal(b1-4)GlcNAc = molecular target: Gal(b1-3)Gal(b1-4)GlcNAc
# [16] = molecular target: Gal(b1-3)GlcNAc(b1-3)Gal(b1-3)GlcNAc
# [17] = molecular target: Gal(b1-3)GlcNAc(b1-3)Gal(b1-4)GlcNAc(b1-2)Man(a1-3)[Gal(b1-3)GlcNAc(b1-3)Gal(b1-4)GlcNAc(b1-2)Man(a1-6)]Man(b1-4)GlcNAc(b1-4)GlcNAc
# [18] = molecular target: Gal(b1-3)GlcNAc(b1-3)Gal(b1-4)GlcNAc(b1-2)[Gal(b1-3)GlcNAc(b1-3)Gal(b1-4)GlcNAc(b1-6)]Man(a1-6)[Gal(b1-3)GlcNAc(b1-3)Gal(b1-4)GlcNAc(b1-2)Man(a1-3)]Man(b1-4)GlcNAc(b1-4)[Fuc(a1-6)]GlcNAc
# [19] = molecular target: Gal(b1-3)GlcNAc(b1-3)Gal(b1-4)GlcNAc(b1-3)Gal(b1-4)GlcNAc(b1-2)[Gal(b1-3)GlcNAc(b1-3)Gal(b1-4)GlcNAc(b1-3)Gal(b1-4)GlcNAc(b1-6)]Man(a1-6)[Gal(b1-3)GlcNAc(b1-3)Gal(b1-4)GlcNAc(b1-3)Gal(b1-4)GlcNAc(b1-2)Man(a1-3)]Man(b1-4)GlcNAc(b1-4)[Fuc(a1-6)]GlcNAc
# [20] = molecular target: Gal(b1-3)GlcNAc(b1-3)Gal(b1-4)GlcNAc(b1-6)[Gal(b1-3)GlcNAc(b1-3)]Gal(b1-4)Glc
# [21] = molecular target: Gal(b1-4)GlcNAc(b1-2)Man(a1-6)[GlcNAc(b1-2)Man(a1-3)]Man(b1-4)GlcNAc(b1-4)GlcNAc
# [22] = molecular target: Gal(b1-4)GlcNAc(b1-2)[Gal(b1-4)GlcNAc(b1-4)]Man(a1-3)[Gal(b1-4)GlcNAc(b1-2)[Gal(b1-4)GlcNAc(b1-6)]Man(a1-6)]Man(b1-4)GlcNAc(b1-4)GlcNAc
binder,measurement,setting,value
Gal 7 (Mus musculus) (protein) MSPILGYWKIKGLVQPTRLLLEYLEEKYEEHLYERDEGDKWRNKKFELGLEFPNLPYYIDGDVKLTQSMAIIRYIADKHNMLGGCPKERAEISMLEGAVLDIRYGVSRIAYSKDFETLKVDFLSKLPEMLKMFEDRLCHKTYLNGDHVTHPDFMLYDALDVVLYMDPMCLDAFPKLVCFKKRIEAIPQIDKYLKSSKYIAWPLQGWQATFGGGDHPPKSDLVPRGSMSATHHKTSLPQGVRVGTVMRIRGMVPDQAGRFHVNLLCGEEQGADAALHFNPRLDTSEVVFNTKEQGKWGREERGTGIPFERGQPFEVLLIATEEGFKAVVGDDEYLHFHHRMPPARVRLVEVGGDVQLHSLNIF,glycan array binding signal (z-score),[1],-0.314
same,glycan array binding signal (z-score),[2],0.231
same,glycan array binding signal (z-score),[3],0.173
same,glycan array binding signal (z-score),[4],6.32
same,glycan array binding signal (z-score),[5],8.38
same,glycan array binding signal (z-score),[6],9.02
same,glycan array binding signal (z-score),[7],-0.337
same,glycan array binding signal (z-score),[8],-0.385
same,glycan array binding signal (z-score),[9],-0.354
same,glycan array binding signal (z-score),[10],-0.323
same,glycan array binding signal (z-score),[11],-0.419
same,glycan array binding signal (z-score),[12],-0.249
same,glycan array binding signal (z-score),[13],-0.33
same,glycan array binding signal (z-score),Gal(a1-3)Gal(b1-3)GlcNAc,0.284
same,glycan array binding signal (z-score),Gal(a1-3)Gal(b1-4)GlcNAc,0.04
same,glycan array binding signal (z-score),[14],-0.224
same,glycan array binding signal (z-score),[15],-0.277
same,glycan array binding signal (z-score),Gal(b1-3)Gal(b1-4)GlcNAc,-0.044
same,glycan array binding signal (z-score),[16],3.23
same,glycan array binding signal (z-score),[17],2.95
same,glycan array binding signal (z-score),[18],2.88
same,glycan array binding signal (z-score),[19],4.51
same,glycan array binding signal (z-score),[20],3.46
same,glycan array binding signal (z-score),[21],-0.175
same,glycan array binding signal (z-score),[22],0.411
